Our source for the activation values is PubChem BioAssay AID504692 (The Scripps Research Institute Molecular Screening Center, 2011).

Sequences of proteins named here, by UniProt entry; tags and fusion partners are left off.
UniProt P47898, whole entry, looked up: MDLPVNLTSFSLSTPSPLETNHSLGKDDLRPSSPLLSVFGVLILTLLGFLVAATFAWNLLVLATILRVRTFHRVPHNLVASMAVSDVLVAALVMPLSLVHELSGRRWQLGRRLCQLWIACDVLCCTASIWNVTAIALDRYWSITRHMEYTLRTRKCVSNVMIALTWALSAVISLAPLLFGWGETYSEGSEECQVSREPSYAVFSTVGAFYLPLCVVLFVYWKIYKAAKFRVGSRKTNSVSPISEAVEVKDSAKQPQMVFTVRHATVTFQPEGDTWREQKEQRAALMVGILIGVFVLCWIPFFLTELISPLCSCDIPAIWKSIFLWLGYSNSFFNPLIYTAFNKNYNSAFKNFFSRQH

The structures appear in SMILES notation. The list shows a part of the results, in another mix than the full data. The source made the active and inactive calls. Rule as the data show it: active = activation mostly above about 9.5% (no sharp cut-off); inactive = mostly below about 7.6%.

The test concerns the target 5-hydroxytryptamine receptor 5A (Homo sapiens) (UniProt P47898). Briefly: HTR5A agonists in luminescence cell assay, primary screen, counter-screen for OPRM1-OPRD1 heterodimer agonist project, full-deck HTS (AID 504692).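 Also: 0% = cells with vehicle only and 100% = reference agonist.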 The note with it: cell-based, at 9.3 µM, stronger effect = higher value. A general note: A counterscreen serves to expose hits that act by an unwanted route or on another target.
With `O=C(Cn1c(-c2ccccn2)nc2ccccc21)N/N=C/c1ccccn1`, the activation was inactive: 4.52%.

On to `O=C(CCCCCNC(=O)N1CCn2c1nc1ccccc12)NCc1ccccc1Cl`, for which the activation was inactive: 1.66%.

`COCCN1CCn2c(nc3cc(NC(=O)c4cccs4)ccc32)C1`: the activation is inactive: 7.49%.

Turning to `O=C(Cn1c(S(=O)(=O)Cc2ccccc2)nc2ccccc21)N1CCCCC1`, the activation was inactive: 14.8%.

For `COc1cccc(CNc2nc3ccccc3n2CCN2CCCCC2)c1`, the activation was inactive: 6.88%.

In the case of `O=C(CSc1nc2ccccc2n1CC(=O)N1CCCC1)Nc1ccc2c(c1)OCO2`, the activation is inactive: 3.37%.

Take `O=C(Nc1ccc2c(c1)nc1n2CCN(C2CCCCC2)C1)c1ccco1`: the activation is inactive: 4.87%.

With `O=C(Nc1ccccc1)N1CCn2c(nc3ccccc32)C1`, the activation was inactive: 0.35%.

Consider `COc1cccc(CNC(=O)[C@H](CC(C)C)NC(=O)N2CCn3c2nc2ccccc23)c1`, for which the activation is inactive: 1.02%.

Take `COc1ccc(CNC(=O)[C@H](C)NC(=O)N2CCn3c2nc2ccccc23)cc1`: the activation is inactive: -1.56%.

For the molecule `CCOC(=O)CC[C@H](NC(=O)Cn1cnc2c(OCc3ccccc3)ncnc21)C(=O)OCC`, the activation is inactive: 5.73%.

With `CCOP(=O)(Nc1cccc2ccccc12)OCC`, the activation was inactive: 4.38%.

Regarding `O=[As](O)(O)c1cccnc1`, the activation was inactive: 2.48%.

On to `O=C(Cn1cnc2ccccc21)N/N=C/c1cccnc1`, for which the activation is inactive: -1.97%.

Take `CN(C)C(=O)Cn1c(=O)n(C)c2ccccc21`: the activation was inactive: 0.03%.

Regarding `Cn1c(=O)c2c(ncn2CC(=O)N2CCCCCC2)n(C)c1=O`, the activation was inactive: -4.07%.

As to `CCC(C)N(C(=O)Cn1cnc2c1c(=O)n(C)c(=O)n2C)C1CCS(=O)(=O)C1` (stereo not given), the activation is inactive: -1.14%.

With `Cc1nc2cc(C(F)(F)F)ccc2n1CCNc1nc(-c2ccc([N+](=O)[O-])c(Cl)c2)cs1`, the activation was inactive: 3.82%.

Turning to `CC(C)C(NS(=O)(=O)c1cccc2nsnc12)C(=O)N1CCn2c1nc1ccccc12` (stereo not given), the activation is inactive: 6.58%.

Turning to `Cc1nc2ccccc2n1CC(=O)NCCN1CCOCC1`, the activation was inactive: -0.87%.

`OCCNc1nc2ccccc2n1CCN1CCCCC1`: the activation was inactive: 4.36%.

As to `C(=N\c1nc2ccccc2n1CCN1CCOCC1)/c1cccs1`, the activation was inactive: -2.46%.

Consider `COCCCNC(=O)Cn1cnc2c(NCc3ccccc3)ncnc21`, for which the activation is inactive: -0.89%.

For the molecule `CS(=O)(=O)c1ccc(Cl)c(NC(=O)COC(=O)C(O)(c2ccccc2)c2ccccc2)c1`, the activation is inactive: -5.67%.

With `Cn1c(=O)c2c(ncn2CC(=O)Nc2cccc(S(=O)(=O)Nc3ccccc3F)c2)n(C)c1=O`, the activation was inactive: -0.54%.

With `O=C(OC1CN2CCC1CC2)c1ccc(Cl)cc1` (stereo not given), the activation was inactive: 0.73%.

On to `O=C(c1ccccc1)N1CCn2c1nc1ccccc12`, for which the activation was inactive: -3.11%.

Consider `c1ccc(Cn2c(CNc3nc4ccccc4n3CCN3CCCCC3)nc3ccccc32)cc1`, for which the activation was inactive: 3.73%.

In the case of `CN1CCN(C(=O)Cn2c(C(F)(F)F)nc3ccccc32)CC1`, the activation was inactive: 2.63%.

As to `Cn1cccc1/C=N/NC(=O)Cn1cnc2ccccc21`, the activation is inactive: 3.12%.

`CC(C(=O)N1CCc2ccccc21)n1cnc2c1c(=O)n(C)c(=O)n2C` (stereo not given): the activation was inactive: -0.18%.

Turning to `CCC(=O)Nc1ccc(NC(=S)NC(=O)/C=C/c2ccco2)cc1`, the activation is inactive: -0.12%.

With `C[C@H](NC(=O)N1CCn2c1nc1ccccc12)C(=O)NCC1CCCO1` (stereo not given in full), the activation was inactive: -0.69%.

In the case of `CN1CCC(N(C)c2nc(-c3ccccc3)nc3ccccc23)CC1`, the activation was inactive: -1.67%.

`Cc1ccc(S(=O)(=O)c2nnn3c2nc(NC2CCN(Cc4ccccc4)CC2)c2ccccc23)cc1C`: the activation was inactive: 3.35%.

In the case of `CCN(CC)CCn1cnc2c1c(=O)[nH]c(=O)n2Cc1ccccc1`, the activation was inactive: 1.92%.

Take `CC(C(=O)Nc1ccccc1C(=O)O)n1c(C(F)(F)F)nc2ccccc21` (stereo not given): the activation is inactive: -1.57%.

Take `Cn1c(=O)c2ncn(CC(=O)NCCOc3ccccc3)c2n(C)c1=O`: the activation was inactive: 1%.

As for `CC(C)(C)NC(=O)Cn1c(-c2nonc2N)nc2ccccc21`, the activation is inactive: -2.65%.

Regarding `COC(=O)Cn1c(=N)n(CCN2CCCCC2)c2ccccc21`, the activation was inactive: -0.28%.

Consider `O=[N+]([O-])c1ccc2c(c1)nc1n2CCN(C2CCCCC2)C1`, for which the activation was inactive: 0.6%.

`CCc1ccc(NC(=O)Cn2c3[n+](c4c(F)c(F)ccc42)CCCCC3)cc1`: the activation was inactive: -5.07%.

Consider `Cc1cccc(OCC(=O)OC2CN3CCC2CC3)c1` (stereo not given), for which the activation was inactive: -9.18%.

On to `CCN(CC)CCn1cnc2c1c(=O)n(CCOC(=O)c1cc(OC)c(OC)c(OC)c1)c(=O)n2C`, for which the activation was inactive: 2.83%.

With `O=C(Cn1cnc2ccccc21)Nc1cccc(S(=O)(=O)N2CCCC2)c1`, the activation is inactive: 7.57%.

Consider `COc1ccc(CNc2nc3ccccc3n2CCN2CCOCC2)cc1`, for which the activation is inactive: -1.65%.

As for `O=[As](O)(c1cccc(O)c1)c1cccc(O)c1`, the activation was inactive: 1.6%.

As to `C=CCOC(=O)C1=C(C)N=C2SCCC(=O)N2C1/C=C/c1ccccc1` (stereo not given), the activation is inactive: -1.08%.

In the case of `Cn1c(=O)c2c(ncn2CCN(CCO)Cc2ccccc2)n(C)c1=O`, the activation was inactive: -5.82%.

As to `CCOC(=O)CSc1nc2ccccc2n1CC(=O)NC(C)(C)C`, the activation is inactive: 2.58%.

As for `N#CCC(=O)N1CCn2c1nc1ccccc12`, the activation is inactive: 7.26%.

In the case of `O=C(Cn1c(CO)nc2ccccc21)NC1CCCCCC1`, the activation is inactive: -0.63%.

On to `CCN(CC)CCn1c(NCc2cc(OC)ccc2OC)nc2ccccc21`, for which the activation was inactive: -0.85%.

With `COC(=O)[C@H](CC(C)C)NC(=O)Cn1cnc2c(OCc3ccccc3)ncnc21`, the activation was inactive: -0.79%.

Regarding `CCOC(=O)C1=C(C)N=C2SCCC(=O)N2[C@@H]1/C=C/c1ccccc1`, the activation was inactive: 6.63%.

As to `O=C(Cn1c(-c2cncs2)nc2ccccc21)NC1CCCC1`, the activation is inactive: -0.45%.

For `COc1ccc(-c2csc(NCCn3c(C)nc4cc(C(F)(F)F)ccc43)n2)cc1`, the activation was inactive: 9.26%.

With `COc1ccccc1CNC(=O)COC(=O)C(O)(c1ccccc1)c1ccccc1`, the activation is inactive: 0.31%.

Consider `Cn1c(=O)c2c(nc(N3CCCCC3)n2CCNC2=NCCC2)n(C)c1=O`, for which the activation is inactive: -3.63%.

With `COc1ccc(N(C(=O)Cn2cnc3ccccc32)C(C(=O)NC2CCCCC2)c2ccccc2)cc1` (stereo not given), the activation is inactive: 5.27%.
